# Values of other authors as cited in patent publication US9540379B2 (priority 2011, dated 2017).
# Legend:
# [1] = test system: rats; conditions: rat, in vivo; cited from earlier work
# [2] = test system: rats; conditions: rat, in vivo; cited from earlier work; remark: listed apart in the source
smiles,measurement,setting,value
COc1ccc(Cc2nccc3cc(OC)c(OC)cc23)cc1OC [papaverine],effect on attentional set-shifting deficits,[1],reverses attentional set-shifting deficits
same,effect on cognitive deficits,[2],positive effect
